Source: patent US8404651B2, “Compositions and methods for treating viral infections” (priority 2008, dated 2013)

What was measured:
[1] = MTT cytotoxicity assay, Vero; format: cell-based; settings: African green monkey, Vero cells, 24-hour incubation
Procedure: (§1) Cellular cytotoxicity profile of the compounds was carried out against a panel of cell lines. Standard MTT assays were performed in 96-well plates using the Promega CellTiter96 Non-radioactive Cell Proliferation Assay Kit in conjunction with a 96-well Plate Reader (ThermoMax, Molecular devices), and MDBK, Vero, and HFF cell lines (obtained from ATCC). Several controls were employed including the nucleoside analogs 3TC, AZT, and ddC, as well as, media without drugs. SDS was used as a positive cytotoxic control. The compounds were tested in triplicate at concentrations of 100, 300, and 1000 μM. Following a 24-hour incubation of cells with the test substance, the MTT assay was carried out.

[2] = Cytotoxicity by neutral red dye uptake in replicon cultures in parallel plates; settings: human
[3] = In vitro cytotoxicity, HepG2; format: cell-based; settings: human, HepG2 cells
[4] = MTT cytotoxicity assay, MDBK; format: cell-based; settings: cattle, MDBK cells, 24-hour incubation
Procedure: as §1

[5] = MTT cytotoxicity assay, HFF; format: cell-based; settings: human, HFF cells, 24-hour incubation
Procedure: as §1

With `COC1C(OP(=O)(OC[C@H]2O[C@@H](n3cnc4c(N)ncnc43)CC2O)SCOC(=O)C(C)(C)C)[C@@H](CO)O[C@H]1n1ccc(=O)[nH]c1=O` (some centres unmarked) [Compound 1] the CC50 at 24 h [1] was > 1 mM, the CC50 at 3 day [2] was > 100 µM and the CC50 [3] was > 100 µM. The CC50 at 24 h [4] was > 1 mM and the CC50 at 24 h [5] was > 1 mM.
